From publication PMC9489631 (Journal of molecular biology, 2022)

Target: TAF-Iβ (Template activating factor-Iβ), full-length (UniProt Q01105-2)
Assay: ITC

B1: linker histone H1.10, full-length (natural protein, human, UniProt Q92522 1-213, looked up)
chain: MSVELEEALPVTTAEGMAKKVTKAGGSAALSPSKKRKNSKKKNQPGKYSQLVVETIRRLGERNGSSLAKIYTEAKKVPWFDQQNGRTYLKYSIKALVQNDTLLQVKGTGANGSFKLNRKKLEGGGERRGAPAAATAPAPTAHKAKKAAPGAAGSRRADKKPARGQKPEQRSHKKGAGAKKDKGGKAKKTAAAGGKKVKKAAKPSVPKVPKGRK
In the case of B1, the Kd is reported as roughly 50 nM and the “stoichiometry N” value is reported as 1 H1.10 per TAF-Iβ monomer.
